{"source": "the NIST ThermoML archive (doi:10.1021/je900342a)", "assay": "Molar enthalpy of transition or fusion", "details": "Crystal; DSC", "note": "± gives the expanded uncertainty stated by the source.", "data": [{"smiles": "CC(C)Cc1ccc(C(C)C(=O)O)cc1", "note": "(stereo unspecified) [ibuprofen]", "values": [{"measurement": "Molar enthalpy of transition or fusion", "value": "6.68 ± 0.191", "unit": "kcal/mol"}]}]}
